Data on one substance can be found in US20240316176A1.

This experiment has as its target native S domain protein with the hinge of GII.4 NoV strain VA387 (GST removed by thrombin) (norovirus GII.4 strain VA387). Description: gel filtration, self-assembly. On the technique in general: Size exclusion chromatography separates by hydrodynamic size, large species first.

Bounds are passed on as bounds.

The substance “native S domain protein with the hinge of GII.4 NoV strain VA387 (GST removed by thrombin)” displayed a portion of the protein in the particle/complex peak below 25%.
